# Patent US9765082B2, “Crystalline form of tiotropium bromide with lactose” (EUTICALS SPA, priority 2014, dated 2017)
# How the values were obtained:
# [1] = Stability of the crystalline form on storage, analyzed by DRX (powder); format: physicochemical; settings: for Crystalline form by DRX (powder), 1st month: 1 month; for Crystalline form by DRX (powder), 2nd month: 2 months; for Crystalline form by DRX (powder), 3rd month: 3 months
# Method: (§1) X-Ray Diffraction spectra were registered by means of diffractometer (Rigaku-D-Max) from a start angle [½ 2-theta] of 5.000 to 60.000. The diffraction diagrams were obtained employing a Cu anode (Kα=1,54060 Å and Kα=1,54439 Å). The HPLC method utilized to check the quality of Tiotropium Bromide in the examined samples is the same as described in the European Pharmacopoeia 7.0.
# Tiotropium Bromide Cocrystal obtained according to the Example 1 was analyzed by DRX (powder) at 1, 2 and 3 months in the following storage conditions in order to verify the stability of this crystalline form.
# [2] = Micronization by air jet mill: particle size distribution and solid state by DRX; format: physicochemical
# Text: as §1
# A sample of Tiotropium Bromide Cocrystal obtained according to Example 1 was micronized using the air jet mill technique in order to verify if this physical treatment affected the quality and the solid state of this product. The obtained analytical results (particle size distribution and chemical purity determined by HPLC) are shown in Table 3; the DRX data of the micronized material confirm that the solid state is not changed after micronization (FIG. 5).
# [3] = before / after air jet mill micronization
substance,measurement,setting,value
Tiotropium Bromide cocrystal with lactose,"Crystalline form by DRX (powder), 1st month",[1]; Amber glass at 25° C.,Unchanged
same,"Crystalline form by DRX (powder), 2nd month",[1]; Amber glass at 25° C.,Unchanged
same,"Crystalline form by DRX (powder), 3rd month",[1]; Amber glass at 25° C.,Unchanged
same,"Crystalline form by DRX (powder), 1st month",[1]; Amber glass at 40° C.,Unchanged
same,"Crystalline form by DRX (powder), 2nd month",[1]; Amber glass at 40° C.,Unchanged
same,"Crystalline form by DRX (powder), 3rd month",[1]; Amber glass at 40° C.,Unchanged
same,"Crystalline form by DRX (powder), 1st month",[1]; Polyethylene bag 25° C./60% UR,Unchanged
same,"Crystalline form by DRX (powder), 2nd month",[1]; Polyethylene bag 25° C./60% UR,Unchanged
same,"Crystalline form by DRX (powder), 3rd month",[1]; Polyethylene bag 25° C./60% UR,Unchanged
same,Solid state after micronization (DRX),"[2]; air jet mill, FIG. 5",not changed
same,D10 (particle size distribution),[2]; [3],2.03 microns
same,D50 (particle size distribution),[2]; [3],16.6 microns
same,D90 (particle size distribution),[2]; [3],178 microns
